According to patent US12070513B2, “PSMA-binding agents and uses thereof” (The Johns Hopkins University, priority 2008, dated 2024):
Entries after “also recorded” stand apart in the source; their conditions may differ.

Test system: PSMA+ LNCaP xenograft in SCID mouse
Assay type: in vivo
Settings: 4 h p.i., LNCaP tumor
Procedure: At 4 h p.i., the mouse was anesthetized with isoflurane and maintained under 1% isoflurane in oxygen. The mouse was positioned on the X-SPECT (Gamma Medica, Northridge, Calif.) gantry and was scanned using two low energy, high-resolution pinhole collimators (Gamma Medica) rotating through 360° in 6° increments for 45 seconds per increment. All gamma images were reconstructed using Lunagem software (Gamma Medica, Northridge, Calif.) Immediately following SPECT acquisition, the mice were then scanned by CT (X-SPECT) over a 4.6 cm field-of-view using a 600 μA, 50 kV beam. […] Data were reconstructed using the Ordered Subsets-Expectation Maximization (OS-EM) algorithm.

O=C(O)CCC(NC(=O)NC(CCCCNC(=O)c1cncc([125I])c1)C(=O)O)C(=O)O (stereo not shown) [[^125I]8, 2-(3-{1-carboxy-5-[(5-[^125I]iodo-pyridine-3-carbonyl)-amino]-pentyl}-ureido)-pentanedioic acid]
radiopharmaceutical uptake in SPECT-CT image: Tumor uptake and retention was high, with slow washout; also recorded: intense uptake within tumor
